This data set deals with tumor. As to conditions: radioimaging, folate-deprived tumor-bearing mice.

The source of these data is patent publication US7399460B2, “Metal complexes derivatized with folate for use in diagnostic and therapeutic applications” (Bracco International B.V., priority 1998, dated 2008).

With “99m-Technetium complex of 12-(N-Pteroyl-α-L-glutamyl)-3,3,9,9-tetramethyl-5-oxa-4,8-diaza-2,10-dodecanedione dioxime [^99mTc-Oxa-α-folate]”, the “localization in tumor and kidneys” value was “good localization”; the uptake by liver entry is “negligible”.
